Measurements from ChEMBL document CHEMBL4334513, “Discovery of a Potent, Selective, and Orally Available MTHFD2 Inhibitor (DS18561882) with in Vivo Antitumor Activity” (J Med Chem, 2019).

Biological target: T1, C-1-tetrahydrofolate synthase, cytoplasmic (Homo sapiens, UniProt P11586)
T1 sequence (P11586 whole entry): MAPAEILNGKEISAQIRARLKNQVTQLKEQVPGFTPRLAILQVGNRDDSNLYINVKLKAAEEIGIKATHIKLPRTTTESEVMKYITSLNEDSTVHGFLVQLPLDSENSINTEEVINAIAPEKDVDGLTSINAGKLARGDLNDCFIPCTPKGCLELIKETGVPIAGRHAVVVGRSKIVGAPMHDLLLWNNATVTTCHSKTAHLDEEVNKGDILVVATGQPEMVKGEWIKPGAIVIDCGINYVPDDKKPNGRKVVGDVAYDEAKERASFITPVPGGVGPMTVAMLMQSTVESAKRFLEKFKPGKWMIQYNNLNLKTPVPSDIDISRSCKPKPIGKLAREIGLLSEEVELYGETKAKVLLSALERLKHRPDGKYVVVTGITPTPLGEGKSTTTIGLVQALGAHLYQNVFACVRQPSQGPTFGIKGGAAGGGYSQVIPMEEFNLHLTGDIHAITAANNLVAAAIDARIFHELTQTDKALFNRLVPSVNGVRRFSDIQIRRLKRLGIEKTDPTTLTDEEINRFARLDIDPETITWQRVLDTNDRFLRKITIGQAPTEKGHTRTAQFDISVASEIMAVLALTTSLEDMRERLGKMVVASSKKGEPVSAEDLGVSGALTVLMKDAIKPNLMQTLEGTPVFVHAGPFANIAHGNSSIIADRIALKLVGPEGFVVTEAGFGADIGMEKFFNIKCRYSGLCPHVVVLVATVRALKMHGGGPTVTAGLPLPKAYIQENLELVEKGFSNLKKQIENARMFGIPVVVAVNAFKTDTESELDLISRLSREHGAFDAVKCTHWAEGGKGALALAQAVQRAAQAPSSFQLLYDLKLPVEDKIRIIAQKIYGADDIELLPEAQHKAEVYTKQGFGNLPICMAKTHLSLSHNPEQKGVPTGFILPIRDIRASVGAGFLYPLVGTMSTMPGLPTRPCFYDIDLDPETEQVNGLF

Q: With `Cc1c(N2CCN(C)[C@H](C)C2)ccc2c3c(c(=O)oc12)CN(C(=O)c1ccc(NS(C)(=O)=O)c(Cl)c1)CC3` as the molecule, how does the IC50 read?
A: 12 µM
